Assay results taken from article doi:10.1101/2022.03.02.482667 (bioRxiv, 2022).

Target: His-tagged full-length G3BP1 F15W (human, UniProt Q13283 1-466, F15W)
Assay: pull-down

percent reduction in co-purification against WT: ~98%
B1: Cytoplasmic Activating/Proliferation Associated Protein 1 (Caprin1) (natural protein)
chain: MPSATSHSGSGSKSSGPPPPSGSSGSEAAAGAGAAAPASQHPATGTGAVQTEAMKQILGVIDKKLRNLEKKKGKLDDYQERMNKGERLNQDQLDAVSKYQEVTNNLEFAKELQRSFMALSQDIQKTIKKTARREQLMREEAEQKRLKTVLELQYVLDKLGDDEVRTDLKQGLNGVPILSEEELSLLDEFYKLVDPERDMSLRLNEQYEHASIHLWDLLEGKEKPVCGTTYKVLKEIVERVFQSNYFDSTHNHQNGLCEEEEAASAPAVEDQVPEAEPEPAEEYTEQSEVESTEYVNRQFMAETQFTSGEKEQVDEWTVETVEVVNSLQQQPQAASPSVPEPHSLTPVAQADPLVRRQRVQDLMAQMQGPYNFIQDSMLDFENQTLDPAIVSAQPMNPTQNMDMPQLVCPPVHSESRLAQPNQVPVQPEATQVPLVSSTSEGYTASQPLYQPSHATEQRPQKEPIDQIQATISLNTDQTTASSSLPAASQPQVFQAGTSKPLHSSGINVNAAPFQSMQTVFNMNAPVPPVNEPETLKQQNQYQASYNQSFSSQPHQVEQTELQQEQLQTVVGTYHGSPDQSHQVTGNHQQPPQQNTGFPRSNQPYYNSRGVSRGGSRGARGLMNGYRGPANGFRGGYDGYRPSFSNTPNSGYTQSQFSAPRDYSGYQRDGYQQNFKRGSGQSGPRGAPRGRGGPPRPNRGMPQMNTQQVN
